SMILES strings stand for the structures. The entries are a selection whose mix differs from that of the whole data set. Activity calls are given as the source filed them.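 How the source made its calls: active means activation above the mean over all tested compounds plus 3 SD (cut at about 0.9% in these data); inactive means the rest.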

The assay concerns Nuclear hormone receptor DAF-12 (Strongyloides stercoralis). The assay can be described thus: S. stercoralis DAF-12 nuclear receptor activators, primary screen, cell-based, luminescence, HEK293, GRIP1 co-expression, lit1-tk-luc (AID 652126).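 Further: 0% = DMSO-only wells and 100% = 3 µM delta7-dafachronic acid wells.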 Conditions: HEK293 ssDAF-12/GRIP1 lit1-tk-luc reporter, at 6.8 µM, stronger effect = higher value, % of 3 µM dafachronic acid response.
Take `CCCOc1ccc(NP(C)(=O)Oc2ccc(Cl)cc2)cc1` (configuration not stated): the activation is inactive: -1.17%.

With `CP(=O)(Nc1ccc(SC(F)(F)F)cc1)Oc1ccccc1` (configuration not stated), the activation was inactive: -1.57%.

Turning to `COc1ccc(-c2ccccn2)cc1.O=[N+]([O-])c1cc([N+](=O)[O-])c(O)c([N+](=O)[O-])c1`, the activation is inactive: -0.76%.

For `COc1ccccc1OP(C)(=O)Nc1c(C)cccc1C` (configuration not stated), the activation was inactive: -1%.

Consider `CN1CCCCC1COC(=O)C1(O)c2ccccc2CCc2ccccc21` (configuration not stated), for which the activation is inactive: -0.85%.

With `CN(Cc1cccnc1)C(=O)COc1ccc(Cl)c(Cl)c1.O=[N+]([O-])c1cc([N+](=O)[O-])c(O)c([N+](=O)[O-])c1`, the activation is inactive: -0.89%.

As for `O=[N+]([O-])c1cc([N+](=O)[O-])c(-n2nnc3ccccc32)c([N+](=O)[O-])c1`, the activation was inactive: -0.52%.

On to `Cc1nc2ccc3ccccc3c2s1.O=[N+]([O-])c1cc([N+](=O)[O-])c(O)c([N+](=O)[O-])c1`, for which the activation was inactive: -0.48%.

Regarding `O=[N+]([O-])c1cc([N+](=O)[O-])c(-c2cnn(-c3ccccc3)c2)c([N+](=O)[O-])c1`, the activation is inactive: -1.45%.

Turning to `Cc1cc(C)cc(OP(C)(=O)Nc2ccc(C)cc2C)c1` (configuration not stated), the activation was inactive: -1.93%.

In the case of `CCOC(=O)c1ccc(NP(C)(=O)Oc2cc(C)cc(C)c2)cc1` (configuration not stated), the activation is inactive: -1.95%.

As to `COc1ccccc1OP(C)(=O)Nc1cccc(Br)c1` (configuration not stated), the activation is inactive: -0.92%.

As to `Cc1cc(C)cc(OP(C)(=O)Nc2ccccn2)c1` (configuration not stated), the activation is inactive: -1.1%.

In the case of `CP(=O)(Nc1cccc(Br)c1)Oc1ccccc1` (configuration not stated), the activation was inactive: -1.29%.

For the molecule `Cc1ccc(C)c(NP(C)(=O)Oc2ccccc2)c1` (configuration not stated), the activation is inactive: -0.97%.

Regarding `O=C(O)c1cccc(Nc2c([N+](=O)[O-])cc([N+](=O)[O-])cc2[N+](=O)[O-])c1`, the activation is inactive: -0.97%.

For the molecule `CC1=NCCc2c1[nH]c1ccccc21.O=[N+]([O-])c1cc([N+](=O)[O-])c(O)c([N+](=O)[O-])c1`, the activation is inactive: 0.04%.

Regarding `CC(C)(C)c1ccc(OP(C)(=O)Nc2ccc(SC(F)(F)F)cc2)cc1` (configuration not stated), the activation was inactive: -0.46%.

`Cc1cccc(C)c1OP(C)(N)=O` (configuration not stated): the activation is inactive: -0.49%.

Take `O=[N+]([O-])c1ccc2c(c1)C=Nc1ccccc1O2`: the activation was inactive: -1.3%.

In the case of `O=[N+]([O-])c1cc([N+](=O)[O-])c(Nc2cccnc2)c([N+](=O)[O-])c1`, the activation is inactive: -1%.

With `COc1ccccc1OP(C)(=O)Nc1cc(Cl)ccc1C` (configuration not stated), the activation is inactive: 0.25%.

In the case of `COc1ccc(OP(C)(=O)Nc2cccc(F)c2)cc1` (configuration not stated), the activation is inactive: -1.02%.

Turning to `Cc1cc(C)cc(OP(C)(N)=O)c1` (configuration not stated), the activation was inactive: -1.94%.

In the case of `CCOC(=O)c1ccc(NP(C)(=O)Oc2ccccc2)cc1` (configuration not stated), the activation was inactive: -1.12%.

Regarding `COc1ccccc1OP(C)(=O)Nc1ccc(C)cc1` (configuration not stated), the activation is inactive: -1.39%.

For the molecule `Cc1ccc(NP(C)(=O)Oc2ccccc2)c(C)c1` (configuration not stated), the activation was inactive: -0.58%.

`CCN(CC)CCCOC(=O)C(O)(c1ccccc1)c1ccccc1`: the activation was inactive: -0.44%.

`COc1ccccc1-c1ccccn1.O=[N+]([O-])c1cc([N+](=O)[O-])c(O)c([N+](=O)[O-])c1`: the activation is inactive: -1.34%.

As to `CP(=O)(NC(=O)Nc1ccccc1)Oc1ccccc1` (configuration not stated), the activation was inactive: -1.08%.

Take `CCc1ccc(OP(C)(=O)N2CCN(c3ccc([N+](=O)[O-])cc3)CC2)cc1` (configuration not stated): the activation is inactive: -2.21%.

As for `Cc1cc(C)cc(OP(C)(=O)Nc2ccc(SC(F)(F)F)cc2)c1` (configuration not stated), the activation is inactive: -1.58%.

Regarding `Cc1cccc(C)c1OP(C)(=O)Nc1ccc(SC(F)(F)F)cc1` (configuration not stated), the activation is inactive: -0.65%.

Take `CP(=O)(Nc1ccc(SC(F)(F)F)cc1)Oc1ccc(Cl)cc1` (configuration not stated): the activation was inactive: -1.6%.

Consider `CP(=O)(Oc1ccccc1)OC(c1ccccc1)C(F)(F)F` (configuration not stated), for which the activation was inactive: -1.16%.

In the case of `CP(=O)(Nc1ccccn1)Oc1ccc(Cl)cc1` (configuration not stated), the activation was inactive: -0.35%.

`CCOP(C)(=S)SCC(=O)NC(C)C(=O)O` (configuration not stated): the activation is inactive: -1.26%.

Take `CCOC(=O)c1ccc(NP(C)(=O)Oc2ccc(OC)cc2)cc1` (configuration not stated): the activation is inactive: -1.57%.

Take `O=[N+]([O-])c1cc([N+](=O)[O-])c(O)c([N+](=O)[O-])c1.c1ccc(Oc2ccncc2)cc1`: the activation is inactive: -1.05%.

For the molecule `COc1ccccc1OP(C)(=O)Nc1ccccc1` (configuration not stated), the activation was inactive: -1.37%.

Consider `CP(=O)(Nc1ccccc1Br)Oc1ccccc1` (configuration not stated), for which the activation is inactive: -1.49%.

With `CP(=S)(Nn1cnnc1)Oc1ccccc1` (configuration not stated), the activation is inactive: -0.32%.
